Earlier results on one molecule are cited in patent US20130116267A1 (priority 2010, published 2013).

Chains of the proteins cited; added tags and fusions are not shown. Lines headed by an entry give the natural chain unless they say otherwise; changes in a name come on top.
UniProt O00329: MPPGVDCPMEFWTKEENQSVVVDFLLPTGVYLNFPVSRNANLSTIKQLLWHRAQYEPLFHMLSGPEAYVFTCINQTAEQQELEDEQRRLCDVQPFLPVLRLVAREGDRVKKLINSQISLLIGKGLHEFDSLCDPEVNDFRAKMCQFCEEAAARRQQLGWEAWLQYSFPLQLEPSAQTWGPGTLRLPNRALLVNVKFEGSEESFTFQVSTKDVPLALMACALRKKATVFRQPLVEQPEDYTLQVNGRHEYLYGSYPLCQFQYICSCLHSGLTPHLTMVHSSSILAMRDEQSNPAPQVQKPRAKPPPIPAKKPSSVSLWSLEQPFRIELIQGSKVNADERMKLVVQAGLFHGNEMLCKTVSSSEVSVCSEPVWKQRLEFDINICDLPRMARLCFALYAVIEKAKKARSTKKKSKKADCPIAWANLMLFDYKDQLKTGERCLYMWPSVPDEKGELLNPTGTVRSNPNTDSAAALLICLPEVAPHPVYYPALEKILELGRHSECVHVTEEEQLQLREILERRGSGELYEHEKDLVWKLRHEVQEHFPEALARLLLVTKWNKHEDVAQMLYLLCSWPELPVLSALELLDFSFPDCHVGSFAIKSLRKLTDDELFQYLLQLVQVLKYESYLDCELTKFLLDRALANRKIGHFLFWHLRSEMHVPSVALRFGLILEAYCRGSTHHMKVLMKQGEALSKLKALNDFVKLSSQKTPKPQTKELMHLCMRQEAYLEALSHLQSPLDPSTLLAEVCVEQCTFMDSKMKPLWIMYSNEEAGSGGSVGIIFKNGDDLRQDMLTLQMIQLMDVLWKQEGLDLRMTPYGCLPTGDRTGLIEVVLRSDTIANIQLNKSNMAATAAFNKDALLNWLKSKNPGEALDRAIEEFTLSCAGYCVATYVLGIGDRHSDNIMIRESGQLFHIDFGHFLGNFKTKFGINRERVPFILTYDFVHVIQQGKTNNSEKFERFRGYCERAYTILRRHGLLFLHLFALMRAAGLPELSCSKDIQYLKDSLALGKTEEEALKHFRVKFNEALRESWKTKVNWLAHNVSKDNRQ

The data set concerns the target PI3K p110 delta (Homo sapiens, UniProt O00329). Particulars: cited from earlier work.

`Cn1c(=O)c2[nH]cnc2n(C)c1=O` [Theophylline, theophylline]: the half-inhibitory concentration (IC50) is 75 µM.
